Source: patent US10029993B2, “Disubstituted 1, 2, 4-triazine compound” (MITSUBISHI TANABE PHARMA CORPORATION, priority 2014, dated 2018)

The chains behind the UniProt entries cited, without tags or fusion partners. Residues count along the entry.
UniProt P19099, 25-503: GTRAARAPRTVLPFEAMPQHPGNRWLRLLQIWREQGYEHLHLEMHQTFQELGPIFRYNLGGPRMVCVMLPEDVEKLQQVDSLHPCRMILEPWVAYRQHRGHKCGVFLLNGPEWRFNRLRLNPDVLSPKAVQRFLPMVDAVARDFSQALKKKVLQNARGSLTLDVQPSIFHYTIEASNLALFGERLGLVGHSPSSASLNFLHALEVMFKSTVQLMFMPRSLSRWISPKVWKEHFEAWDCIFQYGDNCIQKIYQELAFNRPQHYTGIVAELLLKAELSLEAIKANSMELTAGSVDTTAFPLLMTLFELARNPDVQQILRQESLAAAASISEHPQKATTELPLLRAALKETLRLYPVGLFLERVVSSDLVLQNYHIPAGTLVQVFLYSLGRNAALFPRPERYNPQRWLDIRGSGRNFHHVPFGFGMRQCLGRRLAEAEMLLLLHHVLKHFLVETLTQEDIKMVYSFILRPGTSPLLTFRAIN

Biological target: human CYP11B2 (Homo sapiens (Human), UniProt P19099)
Assay: Inhibitory effect on hCYP11B2 (aldosterone production by mitochondrial fraction of V79 cells stably expressing human CYP11B2, HTRF)
Type: biochemical
Conditions: 0.5 μmol/L deoxycorticosterone, 150 μmol/L NADPH, 1.5-2 hours at room temperature
Procedure: Experimental Example 1 (Inhibitory Effect on hCYP11B2)
The pcDNA3.1-human CYP11B2 plasmid was transfected into a Chinese hamster lung fibroblast V79 cell line to produce a cell line stably expressing human CYP11B2 gene.
The cells were cultured and grown in the Dulbecco's modified Eagle's/Ham's medium supplemented with 10% fetal bovine serum and 1% G418 disulfate solution under the environment of 37° C., 95% air, and 5% CO2, and the grown cells were harvested.
Then, the cells were fractionated to obtain mitochondria by reference to a method described in Chabre et al. JCE 86 M 85 (11) 4060-68, 2000. In particular, the cells suspended in a 5 mmol/L Tris-HCl buffer (pH 7.4) containing 250 mmol/L sucrose were homogenized in a Teflon (Registered Trademark) Potter Elvehjem homogenizer, and then the suspension was centrifuged (800×g, 15 min.). […]
The mitochondrial fraction diluted with a buffer containing 10 mmol/L KH2PO4, 10 mmol/L Tris, 20 mmol/L KCl, 25 mmol/L sucrose, 5 mmol/L MgCl2, and 0.05% bovine serum albumin was dispensed to a 96-well plate. […] An amount of the produced aldosterone in the incubated solution was determined by using HTRF (Homogeneous Time Resolved Fluorescence) method.
IC 50 (nmol/L) was calculated by analyzing the aldosterone production inhibition rate (%) of each concentration of compounds by non-linear regression to a logistic curve.

Row | IC50 [nM] | SMILES
1 | 17 | CN(C)[C@H]1CC[C@H](NC(=O)CN2CCN(c3nncc(-c4ccc(F)cc4)n3)CC2)CC1 [Example 22, 3-[4-[[trans-4-(dimethylamino)cyclohexyl]carbamoylmethyl]piperazin-1-yl]-5-(4-fluorophenyl)-1,2,4-triazine]
2 | 16 | CN(C)[C@H]1CC[C@H](NC(=O)CN2CCN(c3nncc([C@H]4CC[C@H](C)CC4)n3)CC2)CC1 [Example 124, 3-[4-[[trans-4-(dimethylamino)cyclohexyl]carbamoylmethyl]piperazin-1-yl]-5-(trans-4-methylcyclohexyl)-1,2,4-triazine]
